ABCB6 inh 2: blocks the human ABCB6 transporter. Q9NP58. K562-ABCB6 porphyrin accumulation, flow cytometry, 1 h; stronger effect = lower value. fluorescence ratio to DMSO, % at 10 µM. 360,000 tested, 0.19% active. AID 602162;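 active means fluorescence ratio to DMSO below 75%, the collection mean minus 3 SD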;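 further: signal is porphyrin accumulated inside mitochondria; 100% equals median channel fluorescence of DMSO control wells; lower ratio means ABCB6 inhibition with less porphyrin fluorescence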
Exocytosis inh: lytic granule exocytosis inhibition; TALL-104 LAMP-1 surface exposure, flow cytometry; cells stimulated with thapsigargin and PMA; inhibition, % at 10 µM; 360,000 tested, 0.66% active; AID 651702;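 active means inhibition above about 55%, limit read from the data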
UUG fidelity: alters start codon recognition fidelity in yeast | S. cerevisiae UUG-firefly luciferase reporter, luminescence/redox ratio | activity score, % at 18.7 µM | 350,000 compounds, 0.13% hits | AID 602363;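 active = replicate mean at a twofold rise or more, about +100% in these data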;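 note: firefly luciferase made from a UUG start codon reports start codon fidelity; reporter light over untreated wells divided by growth signal over untreated wells; some hits fall short of that in this replicate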
pCIP destab: lowers stability of the mouse p/CIP coactivator protein. F442A p/CIP-EGFP cells, EGFP fluorescence, 16 h. decrease of EGFP signal, % at 10 µM. 290,000 tested, 0.01% active. Q05BA5;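 active means EGFP signal decrease of at least 30% at 10 µM or well 3 SD below plate mean, unless failing retest; inactive means the rest, including hits failing retest or dose response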
PKA-R1A activ: PKA-R1A complex activation; P00514+P68181; activation, % at 11.4 µM; PKA-R1A dissociation, Cy5-IP20 fluorescence polarization; scaled: DMSO 0%, 113 µM cGMP 100%; 340,000 tested, 0.083% active;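 active means percent activation above the mean of all tested compounds plus 3 SD, cut at about 19% in these data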;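 further: higher means more PKAc released from R1A so a rise in polarization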
PKA-R2B act: activates the human PKA-R2B holoenzyme complex | AID 504700 | activation, % at 11.4 µM | PKA-R2B holoenzyme dissociation, Cy5-IP20 fluorescence polarization; R2B truncated from residue 108, S112A mutant; 0% DMSO only, 100% 113 µM cGMP | 340,000 tested, 0.079% active;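 active means activation above a cutoff set at the mean over all compounds plus 3 SD, cut at about 18% in these data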;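 further: higher means more holoenzyme dissociation and a rise in polarization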
Exocytosis CP01: lytic granule exocytosis inhibition. shares compounds with Exocytosis inh. TALL-104 cells, LAMP-1 externalization, flow cytometry; stimulated with PMA plus thapsigargin. inhibition, % at 10 µM. 1,500 tested, 11% active; in the data active means inhibition above about 60%;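 further: 0% = stimulated vehicle wells and 100% = unstimulated wells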
* = called active by the depositor; . = no result given. Shown are actives, neighbours in structure and some others; about 0.94% of the full set was active somewhere.

| ABCB6 inh 2 | pCIP destab | UUG fidelity | Exocytosis CP01 | PKA-R2B act | PKA-R1A activ | mol | Exocytosis inh |
| --- | --- | --- | --- | --- | --- | --- | --- |
| 96.0 | 2.4 | -1.0 | -12.0 | -11.8 | -3.5 | COc1ccccc1OCCCCn1ncc2ccc(OC)c(OC)c2c1=O | 77.6* |
| 107.0 | -0.2 | -16.2 | -12.3 | 0.7 | -5.4 | CC(CCN1CCN(c2ccc(F)cc2)CC1)c1ccccc1 (stereo not drawn) | 56.6* |
| . | . | 14.3 | . | . | . | COc1ccc(CNC(=O)C[C@@H]2CC[C@@H](NC(=O)c3ccc4c(c3)OCO4)[C@H](CO)O2)cc1 | . |
| 89.0 | 3.9 | -13.5 | 10.3 | -4.3 | -6.8 | CCC1Oc2ccc(C)cc2N(CC(=O)N(Cc2ccc(C)o2)C2CCCC2)C1=O (stereo not drawn) | 65.5* |
| 92.0 | -13.2 | 3.5 | -12.7 | 5.7 | -7.2 | Cc1ccc2oc(=O)n(CCOc3ccccc3C)c2c1 | 64.5* |
| 95.0 | -8.0 | . | . | -11.9 | 2.2 | Cc1ccc2oc(=O)n(CCCOc3ccccc3C)c2c1 | 1.1 |
| 98.0 | 0.2 | 3.5 | . | 4.6 | -2.4 | NC(=O)Cn1c(=O)n(CCCC(=O)NC2CCN(Cc3ccccc3)CC2)c(=O)c2ccccc21 | -1.0 |
| 93.0 | 5.2 | -0.6 | -10.0 | 6.9 | -1.5 | CCOc1ccc(NC(=O)Cn2c(=O)n(CCCC(=O)NC3CCN(Cc4ccccc4)CC3)c(=O)c3ccccc32)cc1 | 60.8* |
| 97.0 | -22.5 | -12.8 | 19.5 | 11.3 | -4.4 | COc1cccc(C(=O)Oc2ccccc2/C=C\C(=O)c2cc3ccccc3o2)c1 | 86.2* |
| 94.0 | -6.9 | . | . | 4.8 | -1.4 | O=C(Oc1ccccc1/C=C\C(=O)c1cc2ccccc2o1)c1cccc(F)c1 | 55.4 |
| . | . | -16.6 | . | . | . | COc1ccc(S(=O)(=O)N(C)C[C@@H]2Oc3ccc(NS(=O)(=O)c4cccs4)cc3C(=O)N([C@H](C)CO)C[C@H]2C)cc1 | . |
| 104.0 | . | -14.2 | . | . | . | Cc1cc(Br)cn2c(Cc3ccccc3)c(-c3ccco3)nc12 | 14.7 |
| 102.0 | . | -21.1 | -14.9 | . | . | Cc1cc(Br)cn2c(Cc3ccsc3)c(-c3ccco3)nc12 | 59.5* |
| . | . | 3.9 | . | . | . | COCC(=O)N1C[C@H](C)[C@@H](OC)CN(C)C(=O)c2cc(NC(=O)Nc3ccccc3)ccc2OC[C@@H]1C | . |
| 100.0 | . | 3.4 | . | -14.6 | 2.6 | Cc1ccc2nc(N(CCN3CCOCC3)C(=O)CCS(=O)(=O)c3ccccc3)sc2c1 | 13.1 |
| 97.0 | . | -19.1 | -7.6 | -3.9 | 10.2 | Cc1ccc(S(=O)(=O)CCC(=O)N(CCCN2CCOCC2)c2nc3ccccc3s2)cc1 | 65.0* |
| 100.0 | . | . | -9.2 | 8.2 | -7.9 | O=C(CCS(=O)(=O)c1ccccc1)N(CCCN1CCOCC1)c1nc2ccccc2s1 | 58.3* |
| 89.0 | -9.1 | 4.2 | -14.2 | 1.9 | -5.6 | C#Cc1ccc([C@H]2C=C(C(=O)OCC=C)O[C@@H](OCC)[C@@H]2CCCO)cc1 | 78.1* |
| 169.0 | -83.6 | . | 77.0* | 6.1 | 1.8 | O=c1c(Cl)c2oc3ccccc3nc-2c2ccccc12 | 101.7* |
| 97.0 | 12.0 | -1.6 | . | 3.6 | 10.3 | Clc1ccc(-c2nnc(Sc3nc4ccccc4o3)c3ccccc23)cc1 | 0.0 |

Overlap with the part before: five entries, then new ones.
| ABCB6 inh 2 | pCIP destab | UUG fidelity | Exocytosis CP01 | PKA-R2B act | PKA-R1A activ | mol | Exocytosis inh |
| --- | --- | --- | --- | --- | --- | --- | --- |
| 97.0 | . | -19.1 | -7.6 | -3.9 | 10.2 | Cc1ccc(S(=O)(=O)CCC(=O)N(CCCN2CCOCC2)c2nc3ccccc3s2)cc1 | 65.0* |
| 100.0 | . | . | -9.2 | 8.2 | -7.9 | O=C(CCS(=O)(=O)c1ccccc1)N(CCCN1CCOCC1)c1nc2ccccc2s1 | 58.3* |
| 89.0 | -9.1 | 4.2 | -14.2 | 1.9 | -5.6 | C#Cc1ccc([C@H]2C=C(C(=O)OCC=C)O[C@@H](OCC)[C@@H]2CCCO)cc1 | 78.1* |
| 169.0 | -83.6 | . | 77.0* | 6.1 | 1.8 | O=c1c(Cl)c2oc3ccccc3nc-2c2ccccc12 | 101.7* |
| 97.0 | 12.0 | -1.6 | . | 3.6 | 10.3 | Clc1ccc(-c2nnc(Sc3nc4ccccc4o3)c3ccccc23)cc1 | 0.0 |
| . | . | -7.1 | . | . | . | C[C@@H]1CN([C@@H](C)CO)C(=O)c2cc(-c3cccnc3)cnc2O[C@@H]1CN(C)C(=O)c1ccccc1F | . |
| . | . | 9.7 | . | . | . | COc1ccc(CN(C)C[C@@H]2Oc3ccc(NC(=O)Nc4ccc(C(F)(F)F)cc4)cc3C(=O)N([C@H](C)CO)C[C@@H]2C)cc1 | . |
| 106.0 | -1.0 | -7.5 | 100.9* | 3.2 | -13.9 | CC1=NOC(=O)/C1=C/c1ccc(-c2ccc(Cl)cc2)o1 | 77.9* |
| 106.0 | 10.3 | 8.3 | . | -2.0 | -5.0 | CC1=NOC(=O)/C1=C\c1ccc(-c2ccc(Br)cc2C(=O)O)o1 | -4.5 |
| . | . | -3.2 | . | . | . | COc1ccc(S(=O)(=O)N(C)C[C@@H]2Oc3ccc(NS(C)(=O)=O)cc3C(=O)N([C@H](C)CO)C[C@@H]2C)cc1 | . |
| . | . | -4.8 | . | . | . | C[C@H]1CN([C@@H](C)CO)C(=O)c2cc(NC(=O)CCC(F)(F)F)ccc2O[C@H]1CN(C)S(=O)(=O)c1cccs1 | . |
| . | . | -14.8 | . | . | . | C[C@@H]1CN([C@H](C)CO)C(=O)c2cccc(NC(=O)c3nc4ccccc4s3)c2O[C@H]1CN(C)C(=O)Nc1ccc(C(F)(F)F)cc1 | . |
| . | . | -3.5 | . | . | . | C[C@H]1CN([C@@H](C)CO)C(=O)c2cc(NC(=O)CCN3CCOCC3)ccc2O[C@@H]1CN(C)C(=O)Nc1ccc(F)cc1 | . |
| 92.0 | . | . | 97.0* | . | . | COC(=O)[C@]12CCCCC=C1N(Cc1cccc3ccccc13)C(=O)[C@H](CC(=O)NCc1ccc(OC)c(OC)c1)C2 | 70.1* |
| 91.0 | . | -10.6 | . | -1.6 | -3.5 | O=C(CNS(=O)(=O)c1cccc(F)c1)OCC(=O)N1CCCC1=O | 1.2 |
| 106.0 | . | -18.0 | -3.9 | -4.3 | 10.1 | O=C(CNS(=O)(=O)c1c(F)cc(F)cc1Br)OCC(=O)N1CCCC1=O | 61.2* |
| . | . | -18.5 | . | . | . | CCCNC(=O)Nc1ccc2c(c1)C(=O)N(C)[C@@H]1CC[C@@H](CC(=O)NC3CCC3)O[C@H]1CO2 | . |
| 108.0 | -3.6 | -6.7 | -1.5 | -3.8 | -17.8 | O=C1C(=O)N(C/C=C/c2ccccc2)c2ccccc21 | 61.7* |
| 94.0 | -7.0 | -25.2 | . | -6.1 | -5.6 | O=C1c2ccccc2C(=O)N1C/C=C/c1ccccc1 | 0.9 |
| 103.0 | . | . | . | . | . | O=C1NC[C@H](CC2CCCCC2)N(CCc2cc(C(F)(F)F)cc(C(F)(F)F)c2)C1=O | 16.1 |
| 97.0 | -4.3 | -23.1 | -10.4 | -8.7 | -6.2 | FC(F)(F)c1cc(CCN2C(=S)NC[C@@H]2CC2CCCCC2)cc(C(F)(F)F)c1 | 85.8* |
| . | . | 7.5 | . | . | . | COc1ccc(CNC(=O)C[C@H]2CC[C@H](NC(=O)c3cccc(F)c3)[C@H](CO)O2)cc1 | . |
| 113.0 | -7.1 | -2.0 | -14.0 | 7.9 | -13.6 | COc1ccc(Cn2nnnc2C(C(C)C)N(Cc2ccco2)Cc2cccs2)cc1 (stereo not drawn) | 57.2* |
| . | . | 7.1 | . | . | . | C[C@@H]1CN([C@@H](C)CO)C(=O)Cc2cc(NC(=O)Nc3ccc(F)cc3)ccc2O[C@H]1CN(C)S(=O)(=O)c1cccs1 | . |
| . | . | 3.6 | . | . | . | Cc1ccc(S(=O)(=O)Nc2ccc3c(c2)C(=O)N([C@@H](C)CO)C[C@H](C)[C@@H](CN(C)C)OCCCC[C@@H](C)O3)cc1 | . |
| 102.0 | . | -16.0 | 60.4* | -10.8 | 9.5 | CC1COCC(C)N1C1=C(Cl)C(=O)c2ccccc2C1=O (stereo not drawn) | 91.4* |
| 110.0 | . | . | . | -8.3 | 5.5 | CN1CCN(C2=C(Cl)C(=O)c3ccccc3C2=O)CC1 | -2.6 |
| 92.0 | 1.3 | 3.5 | -0.7 | -8.4 | -4.6 | Cc1ccc(-c2nnc(-c3ccc(NC(=O)c4ccco4)cc3)o2)cc1 | 88.5* |
